Test: Solubility in water, stated in words

## Zinc lysine complex [Example C, Zinc lysine complex [Zn (lysine)2. Cl2.2H2O]]
  water solubility: water soluble

— US11844853B2, “Antiperspirant composition” (Conopco, Inc., priority 2018, dated 2023)
